Target: T1, Glycogen synthase kinase-3 beta [7-25] (Oryctolagus cuniculus, UniProt G1T8E2)
T1 construct: 7-25
Experiment: GSK-3 Inhibition Assay
Conditions: pH 7.5; 37 °C

By UniProt entry, the sequences of proteins in these tests, tags left out. Where a name states a change or a piece, a line headed by the entry shows the natural chain unless it says otherwise.
UniProt G1T8E2: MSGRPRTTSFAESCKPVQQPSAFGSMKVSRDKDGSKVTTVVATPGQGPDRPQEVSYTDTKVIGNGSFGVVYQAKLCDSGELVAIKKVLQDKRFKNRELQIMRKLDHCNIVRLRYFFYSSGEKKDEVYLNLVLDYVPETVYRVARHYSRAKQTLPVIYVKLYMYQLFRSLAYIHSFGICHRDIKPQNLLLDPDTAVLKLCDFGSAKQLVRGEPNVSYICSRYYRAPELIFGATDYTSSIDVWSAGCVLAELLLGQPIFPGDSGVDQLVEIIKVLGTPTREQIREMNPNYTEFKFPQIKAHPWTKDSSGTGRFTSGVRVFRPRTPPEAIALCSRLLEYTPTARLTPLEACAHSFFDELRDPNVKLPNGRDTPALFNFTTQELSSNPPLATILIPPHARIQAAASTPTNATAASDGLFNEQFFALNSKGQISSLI

IC50: 70 µM
Structure (SMILES): CCCCn1c(=O)sn(CC)c1=O [4-butyl-2-ethyl-1,2,4-thiadiazolidine-3,5-dione]
